## Ab-14 light chain CDR variants: yeast mating affinities

Data: MIT Lincoln Laboratory AlphaSeq set, Engelhart et al. 2022, doi:10.1038/s41597-022-01779-4, as distributed in FLAb.

The target is the same throughout: PDVDLGDISGINAS, from the HR2 region of SARS-CoV-2 spike.

Parent scFv Ab-14: VH joined to VL by a 15-residue (Gly4Ser)3 linker. Changes lie in the light chain CDRs alone.
VH: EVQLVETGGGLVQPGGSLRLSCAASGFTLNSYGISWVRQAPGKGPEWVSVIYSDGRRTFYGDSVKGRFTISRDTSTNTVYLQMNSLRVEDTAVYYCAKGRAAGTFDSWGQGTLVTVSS
VL: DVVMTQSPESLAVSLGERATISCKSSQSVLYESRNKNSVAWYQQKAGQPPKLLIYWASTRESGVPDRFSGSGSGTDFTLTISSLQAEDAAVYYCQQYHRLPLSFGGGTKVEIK

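Phage display of a naive human antibody library on the peptide gave the parent. AAYL50 was designed without a model: most single CDR substitutions and a random sample of double and triple ones. In AlphaSeq, yeast of one mating type display the scFv and yeast of the other type display the target. Binding brings cells together so that they mate, and sequencing counts the barcode pairs among the diploids. Each replicate has its own calibration line, from reference interactions of the BCL2 family. Mating was done three times.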

Sequences are complete VL domains.
This list gathers variants with a substitution at N35 (VL, numbered from residue 1).
Values are apparent Kd, the geometric mean of the replicates that gave a signal; lower means stronger binding.
Where no diploid with the target was found in any replicate, the entry reads "no signal": below detection, most likely a poor binder, though not proof of it.
Order: sorted from the lowest average up, undetected variants last.

Variant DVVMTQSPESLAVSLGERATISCKISQSVLYESRKKNSVAWYQQKAGQPPKLLIYWASTRESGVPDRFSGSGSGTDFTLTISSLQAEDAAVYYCQQYHRLPLSFGGGTKVEIK showed 2.8 nM (3 of 3 replicates).
Variant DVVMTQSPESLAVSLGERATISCKSSQSVLQESAQKNSVAWYQQKAGQPPKLLIYWASTRESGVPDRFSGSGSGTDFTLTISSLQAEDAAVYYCQQYHRLPLSFGGGTKVEIK showed 5.1 nM (3 of 3 replicates).
Variant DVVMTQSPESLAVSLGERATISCKSSQSVLYEDRHKNSVAWYQQKAGQPPKLLIYWASTRFSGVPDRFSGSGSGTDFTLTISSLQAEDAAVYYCQQYHRLPLSFGGGTKVEIK showed 6.5 nM (3 of 3 replicates).
Variant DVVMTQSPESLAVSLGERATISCKSSQSVLYEEWDKNSVAWYQQKAGQPPKLLIYWASTRESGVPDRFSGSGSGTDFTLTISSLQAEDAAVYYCQQYHRLPLSFGGGTKVEIK showed 7.1 nM (3 of 3 replicates).
Variant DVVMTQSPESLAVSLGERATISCKSSQSVLYESRAKNSVAWYQQKAGQPPKLLIYWASTRESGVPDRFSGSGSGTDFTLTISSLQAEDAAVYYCQQYQRSPLSFGGGTKVEIK showed 7.5 nM (3 of 3 replicates).
Variant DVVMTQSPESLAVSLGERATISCKSSQSVLYESRAKNSVAWYQQKAGQPPKLLIYNASTRESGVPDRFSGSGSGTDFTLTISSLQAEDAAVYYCQQYHYLPLSFGGGTKVEIK showed 7.7 nM (3 of 3 replicates).
Variant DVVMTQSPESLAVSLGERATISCKSSQSVLYESRANNSVAWYQQKAGQPPKLLIYWASTRESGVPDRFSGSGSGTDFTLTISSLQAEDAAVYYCQQYHRLPLRFGGGTKVEIK showed 16 nM (3 of 3 replicates).
Variant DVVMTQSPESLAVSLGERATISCKSSQSVLYENRAKNSVAWYQQKAGQPPKLLIYWASTRMSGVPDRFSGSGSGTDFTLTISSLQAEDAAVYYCQQYHRLPLSFGGGTKVEIK showed 22 nM (3 of 3 replicates).
Variant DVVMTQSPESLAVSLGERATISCKSSQSVLYESRMKNSVAWYQQKAGQPPKLLIYWASTRESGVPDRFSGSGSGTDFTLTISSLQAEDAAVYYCQQYHTLPLSFGGGTKVEIK showed 43 nM (3 of 3 replicates).
Variant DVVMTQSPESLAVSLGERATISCKSSQSVLYESRFKNSVAWYQQKAGQPPKLLIYRASTRESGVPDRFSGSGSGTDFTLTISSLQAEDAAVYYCQQYHALPLSFGGGTKVEIK showed 250 nM (3 of 3 replicates).
Variant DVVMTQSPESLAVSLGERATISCKSSQSVLYESREKNSDAWYQQKAGQPPKLLIYWASTRESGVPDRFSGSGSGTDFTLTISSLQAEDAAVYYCQQYHRHPLSFGGGTKVEIK showed 310 nM (1 of 3 replicates).
Variant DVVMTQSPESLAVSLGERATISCKSSQSVLYESRTKNSVAWYQQKAGQPPKLLIYWASTRDSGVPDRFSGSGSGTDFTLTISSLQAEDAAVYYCQPYHRLPLSFGGGTKVEIK showed 480 nM (3 of 3 replicates).
Variant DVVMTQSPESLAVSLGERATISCKSSQSTLYESRHKNVVAWYQQKAGQPPKLLIYWASTRESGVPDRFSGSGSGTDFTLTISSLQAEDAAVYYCQQYHRLPLSFGGGTKVEIK showed 1.2 µM (1 of 3 replicates).
Variant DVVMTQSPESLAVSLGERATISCKSSQSVLYESRLKNSVAWYQQKAGQPPKLLIYWASTRESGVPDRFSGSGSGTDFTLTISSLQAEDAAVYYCQQNHRLPLEFGGGTKVEIK showed 1.5 µM (1 of 3 replicates).
Variant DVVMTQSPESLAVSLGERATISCKSSQSVLVESRFKMSVAWYQQKAGQPPKLLIYWASTRESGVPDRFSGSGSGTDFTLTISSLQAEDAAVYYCQQYHRLPLSFGGGTKVEIK showed 2.8 µM (2 of 3 replicates).
Variant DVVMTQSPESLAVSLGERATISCKSSQSVLYRSRPKNSVAWYQQKAGQPPKLLIYWAWTRESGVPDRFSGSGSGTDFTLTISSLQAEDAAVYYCQQYHRLPLSFGGGTKVEIK showed 12 µM (1 of 3 replicates).
Variant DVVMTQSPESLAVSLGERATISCKSSQSVLYESRLKNSVAWYQQKAGQPPKLLIYWASTRESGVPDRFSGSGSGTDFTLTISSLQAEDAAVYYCQQRHRLPLYFGGGTKVEIK showed 15 µM (1 of 3 replicates).
Variant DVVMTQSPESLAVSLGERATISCKSSQFVLYESRPKNSVAWYQQKAGQPPKLLIYWWSTRESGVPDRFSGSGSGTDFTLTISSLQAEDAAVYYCQQYHRLPLSFGGGTKVEIK showed 130 µM (3 of 3 replicates).
Variant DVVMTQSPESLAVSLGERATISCKSSQSVLYESRKKNSVAWYQQKAGQPPKLLIYWASTRESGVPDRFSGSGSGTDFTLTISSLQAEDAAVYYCMQYHRLILSFGGGTKVEIK showed no signal (0 of 3 replicates).
Variant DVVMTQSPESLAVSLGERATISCKSSQWVLYESRQKNSVAWYQQKAGQPPKLLIYWASTWESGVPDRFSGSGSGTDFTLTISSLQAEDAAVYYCQQYHRLPLSFGGGTKVEIK showed no signal (0 of 3 replicates).
Variant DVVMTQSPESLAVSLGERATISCKSSQSVLYGSRRKNSVAWYQQKAGQPPKLLIYWASTRESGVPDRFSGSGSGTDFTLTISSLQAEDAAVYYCQQVHRLPLSFGGGTKVEIK showed no signal (0 of 3 replicates).
Variant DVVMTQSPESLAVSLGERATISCKSSQSVLYESRFKNSVAWYQQKAGQPPKLLIYWASTRESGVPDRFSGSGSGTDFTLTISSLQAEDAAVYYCQQRPRLPLSFGGGTKVEIK showed no signal (0 of 3 replicates).

2 of these entries, quoted again:

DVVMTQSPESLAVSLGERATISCKSSQSVLYESRKKNSVAWYQQKAGQPPKLLIYWASTRESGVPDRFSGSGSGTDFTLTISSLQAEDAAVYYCMQYHRLILSFGGGTKVEIK: no signal (0 of 3 replicates).
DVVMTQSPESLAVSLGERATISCKSSQSVLYESRANNSVAWYQQKAGQPPKLLIYWASTRESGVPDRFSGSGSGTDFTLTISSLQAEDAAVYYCQQYHRLPLRFGGGTKVEIK: 16 nM (3 of 3 replicates).

As a blank, each scFv also met three strains without target: over library AAYL50, 18% of these pairings were detected, typically at 15 µM and seldom below 970 nM.